The experiment concerns the target Mu-type opioid receptor (Rattus norvegicus, UniProt P33535). The experiment in a line: Antagonist activity of compound on agonist stimulated [35S]GTP-gamma-S binding on mu-opioid receptor. It counts as functional.

Chains of the proteins cited; added tags and fusions are not shown.
UniProt P33535, whole entry: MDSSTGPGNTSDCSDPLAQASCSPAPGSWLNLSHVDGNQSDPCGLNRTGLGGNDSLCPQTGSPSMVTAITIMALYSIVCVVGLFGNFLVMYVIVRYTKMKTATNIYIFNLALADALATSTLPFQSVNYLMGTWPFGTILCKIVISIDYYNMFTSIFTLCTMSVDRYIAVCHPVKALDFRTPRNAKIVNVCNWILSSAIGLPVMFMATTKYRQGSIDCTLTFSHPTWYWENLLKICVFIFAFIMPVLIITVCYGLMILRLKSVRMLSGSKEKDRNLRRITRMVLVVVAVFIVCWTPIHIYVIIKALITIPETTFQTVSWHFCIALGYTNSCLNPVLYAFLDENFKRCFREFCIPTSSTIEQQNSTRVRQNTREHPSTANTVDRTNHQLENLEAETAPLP

For `Cl.Oc1ccc2c3c1O[C@H]1c4[nH]c5ccccc5c4C[C@@]4(O)[C@@H](C2)N(CC2CC2)CC[C@]314` [NALTRINDOLE HYDROCHLORIDE], affinity was put at a Ki of 4.3 nM.

Values taken from ChEMBL document CHEMBL1134413, “Effect of N-alkyl and N-alkenyl substituents in noroxymorphindole, 17-substituted-6,7-dehydro-4,5alpha-epoxy-3,14-dihydroxy-6,7:2',3'-indolomorphinans, on opioid receptor affinity, selectivity, and efficacy” (J Med Chem, 2001).
